According to PubChem BioAssay (NCI):
Only a part is listed here, and it is no random draw.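 How to read the values: 0–100, growth inhibition (40 = 60% inhibited); 0, no net growth; -100 to 0, cell death (-40 = 40% of starting cells died; -100 = all dead).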 The source made the active and inactive calls. The calls were made as follows: active = growth percent below 10; inactive = the rest.

Experiments:
Assay in all cases: NCI-60 one-dose screen, 48 h (100 = growth as untreated, 0 = no growth, -100 = all killed)
Details in all cases: 10 µM unless noted
NCI/ADR-RES ovarian = test system: NCI/ADR-RES ovarian
T-47D breast = test system: T-47D breast
BT-549 breast = test system: BT-549 breast
MDA-MB-435 melanoma = test system: MDA-MB-435 melanoma
SW-620 colon = test system: SW-620 colon
MCF7 breast = test system: MCF7 breast
HCT-116 colon = test system: HCT-116 colon
HCC-2998 colon = test system: HCC-2998 colon
KM12 colon = test system: KM12 colon

| Structure (SMILES) | growth (NCI/ADR-RES ovarian) | growth (T-47D breast) | growth (BT-549 breast) | growth (MDA-MB-435 melanoma) | growth (SW-620 colon) | growth (MCF7 breast) | growth (HCT-116 colon) | growth (HCC-2998 colon) | growth (KM12 colon) |
| --- | --- | --- | --- | --- | --- | --- | --- | --- | --- |
| CCOC(=O)NC(c1ccccc1[N+](=O)[O-])P(=O)(O)Nc1ncn[nH]1 (stereo not given) | inactive: 105% | inactive: 95.7% | inactive: 122% | inactive: 127% | inactive: 120% | inactive: 98.9% | inactive: 103% | inactive: 118% | inactive: 109% |
| CCP(Cl)(Cl)(Cl)CC | inactive: 102% | inactive: 88.9% | inactive: 93% | inactive: 87.4% | inactive: 102% | inactive: 86.4% | inactive: 101% | inactive: 101% | inactive: 104% |
| N/C(=N/[N+](=O)[O-])N(CCBr)N=O | inactive: 101% | inactive: 89.4% | inactive: 94.2% | inactive: 92.6% | inactive: 104% | inactive: 96.8% | inactive: 89.5% | inactive: 96.7% | inactive: 94.5% |
| Nc1ccc([As](=O)(O)c2ccc([N+](=O)[O-])cc2)cc1 | inactive: 84.1% | inactive: 91.7% | inactive: 117% | inactive: 107% | inactive: 107% | inactive: 105% | inactive: 102% | inactive: 131% | inactive: 103% |
| S=C(Nc1ccccc1)N(CCCl)CCCl | inactive: 105% | inactive: 102% | inactive: 104% | inactive: 98.3% | inactive: 99.4% | inactive: 96.7% | inactive: 105% | inactive: 102% | inactive: 106% |
| CCCN(CCCl)C1c2ccccc2-c2ccccc21 | inactive: 98.6% | inactive: 77% | inactive: 93.2% | inactive: 97.8% | inactive: 103% | inactive: 91.8% | inactive: 93.9% | inactive: 102% | inactive: 103% |
| O=[As]c1ccc(S(=O)(=O)Nc2ccccc2)cc1 (stereo not given) | inactive: 94.2% | active: -19.7% | inactive: 21.1% | inactive: 65.3% | active: 4.73% | active: -24.1% | inactive: 42.1% | inactive: 79.2% | inactive: 96.1% |
| O=C(c1ccc([N+](=O)[O-])cc1)N(CCCl)CCCl | inactive: 105% | inactive: 104% | inactive: 102% | inactive: 91.3% | inactive: 118% | inactive: 98.5% | inactive: 104% | inactive: 112% |  |
| NC1=NCC(Br)CS1 (stereo not given) | inactive: 104% | inactive: 95.1% | inactive: 122% | inactive: 89.9% | inactive: 94.4% | inactive: 107% | inactive: 100% | inactive: 108% | inactive: 96.2% |
| Cc1ccccc1OP(=O)(Cl)Oc1ccccc1C | inactive: 112% | inactive: 93.7% | inactive: 113% | inactive: 105% | inactive: 107% | inactive: 95.8% | inactive: 98.9% | inactive: 117% | inactive: 110% |
| CC(C)(NCCCl)C(O)c1ccccc1 (stereo not given) | inactive: 94.6% | inactive: 71.8% | inactive: 91.3% | inactive: 89.2% | inactive: 82.8% | inactive: 62.1% | inactive: 72.9% | inactive: 81.7% | inactive: 93.9% |
| OP1OCCO1 | inactive: 105% | inactive: 102% | inactive: 105% | inactive: 100% | inactive: 105% | inactive: 97.2% | inactive: 104% | inactive: 119% | inactive: 112% |
| CCOP(=S)(OCC)SCCCl | inactive: 105% | inactive: 98.2% | inactive: 106% | inactive: 97.7% | inactive: 101% | inactive: 97.5% | inactive: 106% | inactive: 96.7% | inactive: 104% |
| COc1ccc([As](=O)(O)O)cc1 | inactive: 112% | inactive: 101% | inactive: 106% | inactive: 113% | inactive: 110% | inactive: 100% | inactive: 102% | inactive: 111% |  |
| O=C(O[C@H]1CN2CCC1CC2)C1NCc2ccccc2[C@@H]1c1ccccc1 (stereo not given in full) | inactive: 96.5% | inactive: 92.5% | inactive: 96.5% | inactive: 104% | inactive: 108% | inactive: 105% | inactive: 91% | inactive: 109% | inactive: 103% |
| O=C(O)C(=O)c1ccc(N(CCCl)CCCl)cc1 | inactive: 108% | inactive: 98.7% | inactive: 101% | inactive: 112% | inactive: 108% | inactive: 111% | inactive: 104% | inactive: 115% | inactive: 103% |

| Structure (SMILES) | growth (NCI/ADR-RES ovarian) | growth (T-47D breast) | growth (BT-549 breast) | growth (MDA-MB-435 melanoma) | growth (SW-620 colon) | growth (MCF7 breast) | growth (HCT-116 colon) | growth (HCC-2998 colon) | growth (KM12 colon) |
| --- | --- | --- | --- | --- | --- | --- | --- | --- | --- |
| CCCCOP(N)(=O)OCCCC | inactive: 104% | inactive: 96.8% | inactive: 105% | inactive: 106% | inactive: 96.8% | inactive: 95% | inactive: 104% | inactive: 108% | inactive: 115% |
| Cc1nn(Cc2ccccc2)c(C)c1C1(O)C[C@H](CC#N)OC1=O (stereo not given in full) | inactive: 67.3% | inactive: 118% | inactive: 95.8% | inactive: 121% | inactive: 110% | inactive: 120% | inactive: 109% | inactive: 11.2% | inactive: 113% |
| ClCCN1CCNCC1 | inactive: 106% | inactive: 105% | inactive: 105% | inactive: 104% | inactive: 103% | inactive: 92.4% | inactive: 106% | inactive: 109% | inactive: 107% |
| CC1CN1P(=O)(Nc1ncccn1)N1CC1C (stereo not given) | inactive: 95.5% | inactive: 111% | inactive: 106% | inactive: 113% | inactive: 106% | inactive: 87.6% | inactive: 105% | inactive: 95.6% | inactive: 102% |
| CCOC(=O)Nc1cccc([As](=O)(O)O)c1 | inactive: 116% | inactive: 95.9% | inactive: 95.3% | inactive: 107% | inactive: 92.5% | inactive: 92.3% | inactive: 91.9% | inactive: 112% | inactive: 96.4% |
| COC(=O)C1(C)COP(=O)(NCc2ccccc2)OC1 (stereo not given) | inactive: 107% | inactive: 99.9% | inactive: 94.9% | inactive: 106% | inactive: 108% | inactive: 99.5% | inactive: 102% | inactive: 98.7% | inactive: 101% |
| ClCCN1c2ccccc2Sc2ccccc21 | inactive: 103% | inactive: 91.2% | inactive: 107% | inactive: 98.5% | inactive: 98.3% | inactive: 102% | inactive: 101% | inactive: 94.8% | inactive: 97.3% |
| CCc1cc(O)c([N+](=O)[O-])c(C)c1[N+](=O)[O-] | inactive: 105% | inactive: 118% | inactive: 112% | inactive: 112% | inactive: 100% | inactive: 113% | inactive: 104% | inactive: 108% | inactive: 98.9% |
| Cc1ccc(OP(=O)(Nc2ccc([N+](=O)[O-])cn2)Oc2ccc(C)cc2)cc1 | inactive: 96.6% | inactive: 97.6% | inactive: 113% | inactive: 109% | inactive: 105% | inactive: 89.5% | inactive: 96.4% | inactive: 106% | inactive: 109% |
| COC(=O)N(C)[N+](=O)[O-] | inactive: 115% | inactive: 101% | inactive: 99.7% | inactive: 106% | inactive: 109% | inactive: 92.8% | inactive: 103% | inactive: 110% | inactive: 115% |
| CN(CCCl)/N=N/c1nc2c([nH]1)c(=O)n(C)c(=O)n2C | inactive: 103% | inactive: 84.1% | inactive: 85.4% | inactive: 99.4% | inactive: 102% | inactive: 92.9% | inactive: 90.7% | inactive: 95.6% | inactive: 99.8% |
| CCN(CC)[P+](c1ccc(OC)cc1OC)(N(CC)CC)N(CC)CC | inactive: 98.8% | inactive: 15.6% | inactive: 27.1% | inactive: 19.1% | inactive: 42.3% | inactive: 12.6% | inactive: 29% | inactive: 43.2% |  |
| CN(C)P1(Cl)=NP(Cl)(N(C)C)=NP(Cl)(N(C)C)=N1 (stereo not given) | inactive: 111% | inactive: 83.4% | inactive: 90.2% | inactive: 105% | inactive: 101% | inactive: 93.8% | inactive: 93.2% | inactive: 106% | inactive: 104% |
| O=[As](O)(O)c1cccnc1 | inactive: 122% | inactive: 104% | inactive: 115% | inactive: 107% | inactive: 107% | inactive: 98.4% | inactive: 101% | inactive: 120% | inactive: 112% |
| Clc1ccc(P(Cl)Cl)cc1 | inactive: 101% | inactive: 120% | inactive: 107% | inactive: 110% | inactive: 102% | inactive: 94.8% | inactive: 111% | inactive: 102% | inactive: 110% |
| ClCCN1c2ccccc2Oc2ccccc21 | inactive: 106% | inactive: 99.2% | inactive: 110% | inactive: 100% | inactive: 99.4% | inactive: 90.7% | inactive: 104% | inactive: 97.5% | inactive: 101% |
